From US8653096B2, “Chemokine receptor antagonists and methods of use thereof” (Millennium Pharmaceuticals, Inc., priority 2001, dated 2014)

Chains of the proteins cited; added tags and fusions are not shown.
UniProt P32246, whole entry: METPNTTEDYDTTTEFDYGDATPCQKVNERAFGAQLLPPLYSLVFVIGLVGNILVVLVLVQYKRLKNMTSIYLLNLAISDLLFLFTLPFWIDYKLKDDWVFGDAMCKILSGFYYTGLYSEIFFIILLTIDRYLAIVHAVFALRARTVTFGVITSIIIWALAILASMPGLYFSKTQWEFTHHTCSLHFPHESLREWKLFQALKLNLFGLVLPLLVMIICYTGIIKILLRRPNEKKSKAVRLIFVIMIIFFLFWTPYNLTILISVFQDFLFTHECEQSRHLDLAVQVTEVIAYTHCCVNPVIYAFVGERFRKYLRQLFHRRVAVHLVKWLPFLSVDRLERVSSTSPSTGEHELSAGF

Target: RANTES/MIP-1α chemokine receptor (CCR1) in THP-1 cell membranes (Homo sapiens, UniProt P32246)
Assay: Receptor binding assay: 125I-RANTES or 125I-MIP-1α binding to THP-1 cell membranes
Settings: inhibitor concentration required for 50% inhibition of specific binding, 125I-RANTES or 125I-MIP-1α as ligand

**Q.** Which IC50 does the source give for `CCCNC(=O)COc1ccc2c(c1)C(=CCCN1CCC(O)(c3ccc(Cl)cc3)CC1)c1cccnc1CO2` here?
**A.** < 1000 nM

**Q.** How did the IC50 turn out when `CN(C)C(=O)CCc1ccc2c(c1)C(=CCCN1CCC(O)(c3ccc(Cl)cc3)CC1)c1cccnc1CO2` was run?
**A.** < 1000 nM

**Q.** `OCCCOc1ccc2c(c1)C(=CCCN1CCC(O)(c3ccc(Cl)cc3)CC1)c1cccnc1CO2` was tested. Which IC50 did it give?
**A.** < 1000 nM

**Q.** For `OC1(c2ccc(Cl)cc2)CCN(CCC=C2c3cc(OCC4CCCCO4)ccc3OCc3ncccc32)CC1` (stereo not drawn), which IC50 is on record?
**A.** < 1000 nM

**Q.** Which IC50 does the source give for `NC(=O)/C=C/c1ccc2c(c1)C(=CCCN1CCC(O)(c3ccc(Cl)cc3)CC1)c1cccnc1CO2` here?
**A.** < 1000 nM

**Q.** For `O=C(Cc1ccc2c(c1)C(=CCCN1CCC(O)(c3ccc(Cl)cc3)CC1)c1cccnc1CO2)N1CCOCC1`, which IC50 is on record?
**A.** < 1000 nM

**Q.** With `O=C(COc1ccc2c(c1)C(=CCCN1CCC(O)(c3ccc(Cl)cc3)CC1)c1cccnc1CO2)NCCO` as the molecule, how does the IC50 read?
**A.** < 1000 nM

**Q.** Which IC50 does the source give for `O=C(COc1ccc2c(c1)C(=CCCN1CCC(O)(c3ccc(Cl)cc3)CC1)c1cccnc1CO2)NC1CC1` here?
**A.** < 1000 nM

**Q.** Which IC50 does the source give for `O=C(Cc1ccc2c(c1)C(=CCCN1CCC(O)(c3ccc(Cl)cc3)CC1)c1cccnc1CO2)NCCO` here?
**A.** < 1000 nM

**Q.** With `CNC(=O)/C=C/c1ccc2c(c1)C(=CCCN1CCC(O)(c3ccc(Cl)cc3)CC1)c1cccnc1CO2` as the molecule, how does the IC50 read?
**A.** < 1000 nM

**Q.** How did the IC50 turn out when `CCN(CC)C(=O)/C=C/c1ccc2c(c1)C(=CCCN1CCC(O)(c3ccc(Cl)cc3)CC1)c1cccnc1CO2` was run?
**A.** < 1000 nM

**Q.** With `O=C(Cc1ccc2c(c1)C(=CCCN1CCC(O)(c3ccc(Cl)cc3)CC1)c1cccnc1CO2)NC1CC1` as the molecule, how does the IC50 read?
**A.** < 1000 nM

**Q.** With `O=C(c1ccc2c(c1)C(=CCCN1CCC(O)(c3ccc(Cl)cc3)CC1)c1cccnc1CO2)N1CCOCC1` as the molecule, how does the IC50 read?
**A.** < 1000 nM

**Q.** With `CC(C)(Oc1ccc2c(c1)C(=CCCN1CCC(O)(c3ccc(Cl)cc3)CC1)c1cccnc1CO2)C(=O)NCCCO` as the molecule, how does the IC50 read?
**A.** < 1000 nM

**Q.** For `O=C(c1ccc2c(c1)C(=CCCN1CCC(O)(c3ccc(Cl)cc3)CC1)c1cccnc1CO2)N1CCCC1`, which IC50 is on record?
**A.** < 1000 nM
